Amino acid sequences for entries named in this document (tags omitted). Residues count along the entry.
UniProt C7FF04, 1-392 limits assumed: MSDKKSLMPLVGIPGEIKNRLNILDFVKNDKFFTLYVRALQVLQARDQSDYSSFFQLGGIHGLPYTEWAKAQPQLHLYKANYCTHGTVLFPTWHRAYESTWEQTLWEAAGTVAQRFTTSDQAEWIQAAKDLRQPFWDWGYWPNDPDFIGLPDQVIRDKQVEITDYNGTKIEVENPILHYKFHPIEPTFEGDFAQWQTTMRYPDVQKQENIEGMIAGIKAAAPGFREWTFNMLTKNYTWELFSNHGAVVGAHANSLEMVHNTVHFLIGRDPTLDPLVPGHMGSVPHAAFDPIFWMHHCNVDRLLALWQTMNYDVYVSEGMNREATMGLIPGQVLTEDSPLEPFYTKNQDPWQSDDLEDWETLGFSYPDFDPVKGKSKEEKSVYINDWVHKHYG
UniProt G1K3P4, 1-150 partner: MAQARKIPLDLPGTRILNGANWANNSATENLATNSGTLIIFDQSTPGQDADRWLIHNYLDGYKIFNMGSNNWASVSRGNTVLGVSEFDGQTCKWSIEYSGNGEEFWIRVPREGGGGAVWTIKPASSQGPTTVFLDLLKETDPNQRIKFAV

This assay addresses Mushroom tyrosinase (Agaricus bisporus, UniProt C7FF04). Nature of the assay: Tyrosinase inhibitory activity with L-DOPA as substrate. To be noted: read-out: IC50 for tyrosinase inhibition, pH 6.8, room temperature, absorbance at 475 nm for 60 seconds. Format: biochemical.
Turning to `N[C@@H](Cn1ccc(=O)c(O)c1)C(=O)N[C@@H](Cc1c[nH]c2ccccc12)C(=O)N[C@@H](Cc1c[nH]c2ccccc12)C(=O)O`, the IC50 (in general, the concentration at which inhibition is half-maximal) came to 28.2 µM.
For `N[C@@H](Cn1ccc(=O)c(O)c1)C(=O)N[C@@H](Cc1c[nH]cn1)C(=O)N[C@@H](Cc1c[nH]c2ccccc12)C(=O)O`, the concentration for half-maximal inhibition (IC50) was 3.02 µM.
The figure for `N[C@@H](Cn1ccc(=O)c(O)c1)C(=O)N[C@@H](Cc1c[nH]cn1)C(=O)N[C@@H](Cc1ccc(O)cc1)C(=O)O` is 8.84 µM.

(Values after patent US20110319347A1, “ANTIOXIDANT AGENT” (priority 2009, published 2011).)
